“Also recorded” adds a separate entry of the source.

This data set relates to HEK 293 kidney cells. The data set is described as follows: Cellular uptake of zinc in HEK 293 kidney cells (BioVision colorimetric zinc uptake assay kit). The class given is cell-based. Particulars: absorbance at 560 nm. The procedure:
Assay was run on BioVision colorimetric zinc uptake assay kit. Absorbance was evaluated at 560 nm. Uptake was evaluated with HEK 293 kidney cells.
Assay was run on BioVision colorimetric zinc uptake assay kit. Uptake was evaluated with HEK 293 kidney cells. Evaluation of cellular uptake relative to percent composition of zinc was evaluated.

With zinc triglycine [ZnG3], the “cellular uptake compared with zinc salts” value was “uptake comparable to that of both salts ZnCl2 and Zn(NO3)2; also recorded: comparable cellular uptake to ZnCl2”.

The values are drawn from patent US20210369768A1, “METAL DI-AMINO ACID CHELATES OR METAL TRI-AMINO ACID CHELATES” (Balchem Corporation, priority 2020, published 2021).
